## Yeast mating assay 2: variants of the scFv Ab-95

From the AlphaSeq antibody data of Engelhart et al. 2022 (doi:10.1038/s41597-022-01779-4), copy in the FLAb collection.

All variants were tested on one target, the spike HR2 peptide PDVDLGDISGINAS (SARS-CoV-2).

Parent scFv Ab-95: VH joined to VL by the linker GGGGSGGGGSGGGGS. Changes lie in the light chain CDRs alone.
VH: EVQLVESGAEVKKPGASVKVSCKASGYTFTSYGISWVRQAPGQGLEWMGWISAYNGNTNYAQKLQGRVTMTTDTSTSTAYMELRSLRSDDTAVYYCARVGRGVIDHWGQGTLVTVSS
VL: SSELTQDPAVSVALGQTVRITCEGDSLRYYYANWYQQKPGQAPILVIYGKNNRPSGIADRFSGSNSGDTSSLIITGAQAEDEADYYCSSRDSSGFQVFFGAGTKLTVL

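The starting antibody came from a phage panning campaign against this peptide. Variants in AAYL52 differ from the parent at up to three CDR positions; double and triple changes were sampled at random. Affinity was read by AlphaSeq, a pooled yeast mating assay with surface-displayed partners. The frequency of each diploid, read from paired DNA barcodes, reflects how well the two displayed proteins bind. A regression on co-assayed BCL2-family reference pairs converts the normalised counts of each replicate to an apparent Kd. The assay was run in three technical replicates.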

Each variant is given by its three light chain CDRs, as the data file delimits them; those of the parent are EGDSLRYYYAN, GKNNRPS, SSRDSSGFQVF.
Values are log10 of the apparent Kd in nM; lower means stronger binding.
"nd" means that the variant was in the library but no mating with the target was seen in that replicate; the authors take this as a sign of poor binding, and no number exists.
As a blank, each scFv also met three strains without target: over library AAYL52, 28% of these pairings were detected, typically at 3.91 and seldom below 2.90. Also given: how often the same scFv was detected with the empty control strains, with their mean in brackets.
In this assay the parent's reference entry averaged 2.31; its copy inside this library read 2.25.

| CDR-L1 | CDR-L2 | CDR-L3 | log10 Kd, replicates | signal with controls |
|---|---|---|---|---|
| EGDSHRYWYAN | GKNNRPS | SSRDSSGFQVF | 2.84 3.44 2.82 | 5 of 9 (4.06) |
| EGVSLRYYYAN | GKENRPS | SSRDSSGFKVF | nd 2.87 nd | 4 of 9 (3.88) |
| EGDSLRYYYAN | GKNNRPS | YSRDSSGFQVF | 2.42 2.28 2.38 | 2 of 9 (4.58) |
| EGDSLRYHYAN | GKDNRPS | SSRDSSGFQVF | 1.25 1.21 0.76 | 1 of 9 (4.31) |
| EGDSIRYYYAN | GKNNRPS | CSRDSSGFQVA | nd nd nd | 1 of 9 (3.58) |
| EGDSLRYYYYN | GKNNRPS | SSRDSSHFQGF | nd 4.08 nd | 5 of 9 (4.09) |
| EGDSCRYYYAN | GKNNRPS | SSRDSSGFQVF | 3.82 3.85 nd | 4 of 9 (3.62) |
| PGDSLRYYYAN | GKNNRPS | SSRDSSGFNVF | nd nd nd | 4 of 9 (3.50) |
| EGESLRYYYAD | GKNNRPS | SSRDSSGFFVF | 3.11 nd nd | 1 of 9 (3.84) |
| EGDSLRVYYAN | GKANRPS | SFRDSSGFQVF | 3.53 5.12 nd | 7 of 9 (4.23) |
| EGDSLRYYHAP | GKNNRPS | SSRDSTGFQVF | nd nd nd | 3 of 9 (3.87) |
| EGDSLRYYYAN | GKNNRTS | WSRDSSGFQPF | nd 3.94 nd | 2 of 9 (3.74) |
| IGDSWRYYYAN | GKNNRPE | SSRDSSGFQVF | 3.79 nd 3.95 | 2 of 9 (3.85) |
| EGDSLRYYYGA | GKNNRPM | SSRDSSGFQVF | 3.95 4.09 nd | 2 of 9 (4.45) |
| EGDSLRYYYAN | GKNNRPP | SSRDSTNFQVF | 2.34 2.46 2.49 | 2 of 9 (4.03) |
| EGDSLRYYAAN | GHNNRPS | SSRYSSGFQVF | 1.54 1.55 0.87 | 3 of 9 (3.93) |
| EGDSLSYYYAN | SKYNRPS | SSRDSSGFQVF | 4.22 nd nd | 2 of 9 (3.29) |
| EGDSLRYYYAN | GKNCRPS | SSRDSSGFQQK | 4.33 4.55 nd | 2 of 9 (3.70) |
| EGDSLRYYYAN | MKNDRPS | SSRDSSGFVVF | 3.53 3.76 nd | 4 of 9 (3.79) |
| EGDSLRYYYLN | GKKNRPS | SSRDSSHFQVF | nd nd nd | 0 of 9 |
| EYDWLRYYYAF | GKNNRPS | SSRDSSGFQVF | 2.93 2.59 2.01 | 3 of 9 (3.72) |
| PGDSTRYYYAM | GKNNRPS | SSRDSSGFQVF | nd nd nd | 1 of 9 (3.12) |
| EGDSLRYYYAN | GKNNRYS | SSRDSYGFQQF | nd 3.32 2.49 | 2 of 9 (4.05) |
| EGDSLRYYYAN | GKNNRKS | SSEDSSGFQEF | 3.06 2.63 2.40 | 3 of 9 (3.26) |
| EGHSLRYYYAN | GMNNRPS | SSRDSSGMQVF | 2.76 2.49 2.01 | 0 of 9 |
| EHDSLRYYYAN | GKNNRPS | SSLDPSGFQVF | nd nd nd | 2 of 9 (4.48) |
| EGDSLRYRYAN | GKNNRPS | SSGDSSIFQVF | 1.99 1.89 1.66 | 2 of 9 (3.72) |
| EGDSLRYYYAN | GKNNRGS | ESRDSSGFQVF | 2.09 2.68 2.64 | 3 of 9 (4.55) |
| EGDSLRYYYAN | GKNNRPS | SSREISGPQVF | nd nd nd | 0 of 9 |
| EKDSLRYYYAN | GKNNRPS | SQRDSSGFQVF | 3.67 nd nd | 3 of 9 (3.98) |
| EYDSLRYYYAT | TKNNRPS | SSRDSSGFQVF | 4.69 nd nd | 3 of 9 (4.31) |
| CGDSLRYFYAN | GKSNRPS | SSRDSSGFQVF | 2.28 2.16 1.55 | 0 of 9 |
| EGDSLRYYYAT | GKNNRPS | SQRDSSGFMVF | nd nd nd | 0 of 9 |
| VGDSLRYYYAN | GKNNSPS | VSRDSSGFQVF | nd nd nd | 0 of 9 |
| EGRSLRYYYAN | GKNNRPS | YSRDSSGFFVF | 2.85 nd 3.86 | 3 of 9 (3.92) |
| EGDSLRYYYAN | GKNIRPS | SSRDSPGVQVF | 2.28 2.32 1.86 | 5 of 9 (4.30) |
| LGSSLLYYYAN | GKNNRPS | SSRDSSGFQVF | 3.66 4.06 2.98 | 3 of 9 (4.62) |
| EGVSLRYYYAN | GKNNRPS | SSRDSSVFQVM | 3.24 5.12 2.83 | 2 of 9 (3.85) |
| DGDSLRYYYIN | GKNNRRS | SSRDSSGFQVF | 4.43 5.52 nd | 1 of 9 (3.99) |
| EGDSLRYYYAH | QKNKRPS | SSRDSSGFQVF | 4.49 3.01 3.69 | 5 of 9 (4.09) |
| ETDSLRYYRAN | GKNNRPS | SMRDSSGFQVF | 3.80 2.95 2.83 | 1 of 9 (3.69) |
| PGDSLRHYYAN | GKNNRPS | SSRDSSGFQTF | 3.72 5.54 3.13 | 1 of 9 (3.84) |
| EGDSLRYYYAN | VKNNRPC | SSRDSSGFQIF | 5.21 4.42 nd | 4 of 9 (4.31) |
| EGDSERYYYAN | GKNNRPG | SSRDSSGFQRF | 3.41 nd 4.10 | 3 of 9 (3.93) |
| RGDSLRYWYAN | GKNNRMS | SSRDSSGFQVF | 2.16 2.05 1.84 | 3 of 9 (4.81) |

The 6 strongest on average among those seen in every replicate, once more:

CDR-L1,CDR-L2,CDR-L3,"log10 Kd, replicates",signal with controls
EGDSLRYHYAN,GKDNRPS,SSRDSSGFQVF,1.25 1.21 0.76,1 of 9 (4.31)
EGDSLRYYAAN,GHNNRPS,SSRYSSGFQVF,1.54 1.55 0.87,3 of 9 (3.93)
EGDSLRYRYAN,GKNNRPS,SSGDSSIFQVF,1.99 1.89 1.66,2 of 9 (3.72)
CGDSLRYFYAN,GKSNRPS,SSRDSSGFQVF,2.28 2.16 1.55,0 of 9
RGDSLRYWYAN,GKNNRMS,SSRDSSGFQVF,2.16 2.05 1.84,3 of 9 (4.81)
EGDSLRYYYAN,GKNIRPS,SSRDSPGVQVF,2.28 2.32 1.86,5 of 9 (4.30)